Values quoted from earlier work as cited in patent US5266571A, “Treatment of hemorrhoids with 5-HT2 antagonists” (priority 1992, dated 1993).

Tested on: 5-HT2 receptor
Details: background statement; cited from earlier work

Compound: CN1CCN2c3ccccc3Cc3ccccc3C2C1 (stereo not shown) [mianserin]
- inhibition of modulation of phosphatidylinositol turnover by 5-HT2 receptor: inhibited
